Results from PubChem BioAssay AID1051 (The Scripps Research Institute Molecular Screening Center, 2008).
The entries are a selection whose mix differs from that of the whole data set. Calls of active or inactive are those of the source. Cut-off read from the data, not from the text of the source: active = TR-FRET ratio above about 2300; inactive = the rest.

test: TR-FRET detection interference compounds, primary screen, artefact control for PPARgamma SRC-1 recruitment agonists, biochemical, TR-FRET emission ratio (AID 1051); conditions: TR-FRET detection artefact counter-screen, at 8 µM, active compounds read high

Q: Which TR-FRET ratio does the source give for `O=P(Nc1ccccn1)(c1cccc2ccccc12)c1cccc2ccccc12` here?
A: The TR-FRET ratio was inactive: 1810.

Q: Which TR-FRET ratio does the source give for `Cc1cc(SC(NC=O)C(Cl)(Cl)Cl)ncn1` (configuration not stated) here?
A: Its TR-FRET ratio is inactive: 1520.

Q: With `Cc1cc(SC(NC(=O)c2ccccc2)C(Cl)(Cl)Cl)nc(C(C)C)n1` (configuration not stated) as the compound, how does the TR-FRET ratio read?
A: Its TR-FRET ratio is inactive: 1650.

Q: Which TR-FRET ratio does the source give for `COc1ccc(N/C(=N/P(=O)(N2CCOCC2)N2CCOCC2)N2CCOCC2)cc1` here?
A: Its TR-FRET ratio is inactive: 1700.

Q: Which TR-FRET ratio does the source give for `COc1ccc2nc(NP(=O)(c3ccccc3)c3ccccc3)sc2c1` here?
A: Its TR-FRET ratio is inactive: 1900.

Q: With `Cc1c2c(nc3ccccc13)SC(C(Cl)Cl)C2` (configuration not stated) as the compound, how does the TR-FRET ratio read?
A: Its TR-FRET ratio is inactive: 1780.

Q: Which TR-FRET ratio does the source give for `Cc1cc(=O)[nH]c(N[N+](=O)[O-])n1` here?
A: Its TR-FRET ratio is inactive: 1500.

Q: For `CC(C)NC(=O)NP(=O)(Oc1ccccc1)Oc1ccccc1`, which TR-FRET ratio is on record?
A: Its TR-FRET ratio is inactive: 1840.

Q: Which TR-FRET ratio does the source give for `O=[N+]([O-])c1cc([N+](=O)[O-])c(-c2ccn[nH]2)s1` here?
A: Its TR-FRET ratio is inactive: 1910.

Q: For `Cc1ccc2nc3c(c(C)c2c1)CC(C(Cl)Cl)S3` (configuration not stated), which TR-FRET ratio is on record?
A: Its TR-FRET ratio is inactive: 1800.

Q: For `O=P(Nc1nccs1)(c1ccccc1)c1nc2ccccc2s1` (configuration not stated), which TR-FRET ratio is on record?
A: Its TR-FRET ratio is inactive: 1720.

Q: With `O=P(Nc1nccs1)(Oc1ccccc1)Oc1ccccc1` as the compound, how does the TR-FRET ratio read?
A: The TR-FRET ratio was inactive: 1790.

Q: Which TR-FRET ratio does the source give for `COc1cc(C2NCCC3(OCCO3)C2(C)C)cc(OC)c1OC` (configuration not stated) here?
A: Its TR-FRET ratio is inactive: 1840.

Q: With `CCOP(=O)(Nc1cccc2ccccc12)OCC` as the compound, how does the TR-FRET ratio read?
A: The TR-FRET ratio was inactive: 1950.

Q: For `Cc1ccc(NCCc2c([N+](=O)[O-])cc([N+](=O)[O-])cc2[N+](=O)[O-])cc1`, which TR-FRET ratio is on record?
A: The TR-FRET ratio was inactive: 1750.

Q: With `COc1cc(C(=O)NCC2(N3CCOCC3)CCCCC2)cc(Cl)c1OC(C)C` as the compound, how does the TR-FRET ratio read?
A: The TR-FRET ratio was inactive: 1810.

Q: Which TR-FRET ratio does the source give for `CC(C)/C=N\N=C(\N)N[N+](=O)[O-]` here?
A: Its TR-FRET ratio is inactive: 1660.

Q: With `CN(C(=O)Cc1ccc(Cl)c(Cl)c1)[C@@H]1CCCC[C@H]1N1CCCC1` as the compound, how does the TR-FRET ratio read?
A: The TR-FRET ratio was inactive: 1820.

Q: With `CN(C)C1(CNC(=O)c2ccc(S(C)(=O)=O)cc2)CCCCC1` as the compound, how does the TR-FRET ratio read?
A: The TR-FRET ratio was inactive: 1650.

Q: With `CC1CCC(C(C)C)C(OP(=O)(Nc2ccccn2)c2ccccc2)C1` (configuration not stated) as the compound, how does the TR-FRET ratio read?
A: The TR-FRET ratio was inactive: 1840.

Q: With `C(Cc1nn[nH]n1)Cc1nn[nH]n1` as the compound, how does the TR-FRET ratio read?
A: Its TR-FRET ratio is inactive: 1760.

Q: With `CC(=O)NC(SC(=S)N(C)C)C(Cl)(Cl)Cl` (configuration not stated) as the compound, how does the TR-FRET ratio read?
A: The TR-FRET ratio was inactive: 1770.

Q: For `O=P(Nc1ccccn1)(c1ccc(Br)cc1)c1ccc(Br)cc1`, which TR-FRET ratio is on record?
A: Its TR-FRET ratio is inactive: 1870.

Q: Which TR-FRET ratio does the source give for `CC(C)C(=O)NC(Sc1ccccc1)C(Cl)(Cl)Cl` (configuration not stated) here?
A: The TR-FRET ratio was inactive: 1670.

Q: For `CC(=O)Nc1ccc(Oc2c([N+](=O)[O-])cc([N+](=O)[O-])cc2[N+](=O)[O-])cc1`, which TR-FRET ratio is on record?
A: Its TR-FRET ratio is inactive: 1970.

Q: Which TR-FRET ratio does the source give for `CC(C)(C)C(=O)NC(Sc1ccccc1)C(Cl)(Cl)Cl` (configuration not stated) here?
A: The TR-FRET ratio was inactive: 1650.

Q: Which TR-FRET ratio does the source give for `CCOc1ccc(C2=NCC(CBr)S2)cc1` (configuration not stated) here?
A: The TR-FRET ratio was inactive: 1670.

Q: For `O=c1c2cc([N+](=O)[O-])ccc2[nH]c2c([N+](=O)[O-])cc([N+](=O)[O-])cc12`, which TR-FRET ratio is on record?
A: Its TR-FRET ratio is inactive: 1770.

Q: Which TR-FRET ratio does the source give for `CC(=O)NC(SC(=S)N(CC(C)C)CC(C)C)C(Cl)(Cl)Cl` (configuration not stated) here?
A: Its TR-FRET ratio is inactive: 2050.

Q: Which TR-FRET ratio does the source give for `Cc1ccc(OP(=O)(Nc2ccccn2)Oc2ccc(C)cc2)cc1` here?
A: Its TR-FRET ratio is inactive: 1640.

Q: For `c1ccc(-c2nn[nH]n2)c(-c2nn[nH]n2)c1`, which TR-FRET ratio is on record?
A: Its TR-FRET ratio is inactive: 1520.

Q: For `CCNC(=S)/N=C(\N)N[N+](=O)[O-]`, which TR-FRET ratio is on record?
A: The TR-FRET ratio was inactive: 1720.

Q: Which TR-FRET ratio does the source give for `O=C(NC1CCS(=O)(=O)C1)NP(=S)(Oc1ccccc1)Oc1ccccc1` (configuration not stated) here?
A: The TR-FRET ratio was inactive: 2010.

Q: With `CCN(N=Nc1nonc1N)c1nonc1N` as the compound, how does the TR-FRET ratio read?
A: The TR-FRET ratio was inactive: 1700.

Q: For `Cc1cc(SC(NC(=O)c2ccc(F)cc2)C(Cl)(Cl)Cl)ncn1` (configuration not stated), which TR-FRET ratio is on record?
A: Its TR-FRET ratio is inactive: 1870.

Q: Which TR-FRET ratio does the source give for `O=C(NC(Sc1ccncn1)C(Cl)(Cl)Cl)c1ccccc1` (configuration not stated) here?
A: Its TR-FRET ratio is inactive: 1810.

Q: With `Clc1ccc(Cl)c(NC2=NCC(CBr)S2)c1` (configuration not stated) as the compound, how does the TR-FRET ratio read?
A: Its TR-FRET ratio is inactive: 1830.

Q: Which TR-FRET ratio does the source give for `COc1ccccc1OP(=O)(Nc1ccc(C)cn1)Oc1ccccc1OC` here?
A: The TR-FRET ratio was inactive: 1710.

Q: With `Cc1ccc(N/C(=N/P(=O)(N2CCOCC2)N2CCOCC2)N2CCOCC2)cc1` as the compound, how does the TR-FRET ratio read?
A: Its TR-FRET ratio is inactive: 1790.

Q: For `NC(=O)c1cc([N+](=O)[O-])cc([N+](=O)[O-])c1N`, which TR-FRET ratio is on record?
A: The TR-FRET ratio was inactive: 1770.

Q: With `CC(C)=N/N=C(\N)N[N+](=O)[O-]` as the compound, how does the TR-FRET ratio read?
A: The TR-FRET ratio was inactive: 1630.

Q: For `CN(C)C(=O)OCCc1n(C)cc[n+]1C`, which TR-FRET ratio is on record?
A: The TR-FRET ratio was inactive: 1530.

Q: Which TR-FRET ratio does the source give for `CCN(/C(=N/P(=O)(N1CCOCC1)N1CCOCC1)N1CCOCC1)c1ccc(OC)cc1` here?
A: Its TR-FRET ratio is inactive: 1700.

Q: For `Cc1ccc(NP(=O)(Oc2ccccc2)Oc2ccccc2)nc1`, which TR-FRET ratio is on record?
A: Its TR-FRET ratio is inactive: 1770.

Q: For `O=[N+]([O-])c1cc([N+](=O)[O-])c(CCNc2ccccc2)c([N+](=O)[O-])c1`, which TR-FRET ratio is on record?
A: The TR-FRET ratio was inactive: 2040.

Q: With `COc1ccc(C2=NCC(CBr)S2)cc1` (configuration not stated) as the compound, how does the TR-FRET ratio read?
A: The TR-FRET ratio was inactive: 1780.

Q: With `O=[N+]([O-])c1ncn(CCn2ncnc2[N+](=O)[O-])n1` as the compound, how does the TR-FRET ratio read?
A: The TR-FRET ratio was inactive: 1590.
